Data published in US20040097421A1 (priority 2000, published 2004).

What was measured:
[1] = test system: CEM/S (leukemia CCRF-CEM); assay: FMCA cell line panel, CEM/S; type: cell-based, human; conditions: read-out: IC50 (μM), CEM/S, 72 hours
[2] = test system: CEM/R; assay: FMCA cell line panel, CEM/R; type: cell-based, human; conditions: read-out: IC50 (μM), CEM/R, 72 hours
[3] = test system: ACHN (renal carcinoma, primary resistant); assay: FMCA cell line panel, ACHN; type: cell-based, human; conditions: read-out: IC50 (μM), ACHN, 72 hours
[4] = test system: H69 (small cell lung cancer NCI-H69); assay: FMCA cell line panel, H69; type: cell-based, human; conditions: read-out: IC50 (μM), H69, 72 hours
[5] = test system: H69AR (doxorubicin resistance subline); assay: FMCA cell line panel, H69AR; type: cell-based, human; conditions: read-out: IC50 (μM), H69AR, 72 hours
[6] = test system: 8226S (myeloma RPMI 8226); assay: FMCA cell line panel, 8226S; type: cell-based, human; conditions: read-out: IC50 (μM), 8226S, 72 hours
[7] = test system: 8226Dox40 (doxorubicin resistance subline); assay: FMCA cell line panel, 8226Dox40; type: cell-based, human; conditions: read-out: IC50 (μM), 8226Dox40, 72 hours
[8] = test system: 8226LR5 (melphalan resistance subline); assay: FMCA cell line panel, 8226LR5; type: cell-based, human; conditions: read-out: IC50 (μM), 8226LR5, 72 hours
[9] = test system: U937gtb (lymphoma U-937 GBT); assay: FMCA cell line panel, U937gtb; type: cell-based, human; conditions: read-out: IC50 (μM), U937gtb, 72 hours
[10] = test system: U937vcr (vincristine resistance subline); assay: FMCA cell line panel, U937vcr; type: cell-based, human; conditions: read-out: IC50 (μM), U937vcr, 72 hours
[11] = test system: panel of ten human tumour cell lines; assay: FMCA cell line panel, mean of ten lines; type: cell-based; conditions: mean over the ten cell lines
[12] = test system: hematological tumors, primary cultures of human tumor cells from patients (PHTC); assay: FMCA, 31 PHTC cultures, Test 4, hematological tumors; type: cell-based; conditions: 10 μM
[13] = test system: solid tumors, primary cultures of human tumor cells from patients (PHTC); assay: FMCA, 31 PHTC cultures, Test 4, solid tumors; type: cell-based; conditions: 10 μM
[14] = test system: primary cultures of human tumor cells from patients (PHTC), total; assay: FMCA, 31 PHTC cultures, Test 4, total; type: cell-based; conditions: 10 μM

Structure (SMILES): N[C@@H](Cc1cccc(N(CCCl)CCCl)c1)C(=O)O
- IC50 [1]: 2.54 µM
- IC50 [2]: 1.7 µM
- IC50 [3]: 390 µM
- IC50 [4]: 41.1 µM
- IC50 [5]: 61.4 µM
- IC50 [6]: 30.4 µM
- IC50 [7]: 41.4 µM
- IC50 [8]: 31.9 µM
- IC50 [9]: 3.78 µM
- IC50 [10]: 6.64 µM
- IC50 (μM), MEAN [11]: 61.09 µM
- Tumor cell survival index (%), Hematological tumors n = 7-11 [12]: 47.1%
- Tumor cell survival index (%), Solid tumors n = 12-20 [13]: 93.2%
- Tumor cell survival index (%), Total n = 19-31 [14]: 76.2%
